These results are taken from US6951953B2, “Tumor selective and biodegradable polyphosphazene-platinum(II) conjugate antitumor agent, and preparation method thereof” (EWHA Womans University, priority 2003, dated 2005).

Like-named read-outs stand apart in the source and are kept apart here.

This data set deals with B16F10 melanoma cells. Conditions: C57 BL/6N mice with B16F10 melanoma, Pt by ICP-MS, muscle as normal tissue.
Setting [1] is: 2 hours after 20 mg/kg tail vein injection.
Where [2] appears, read: 24 hours after 20 mg/kg tail vein injection.

Consider “poly{[methoxy poly(ethylene glycol)350][glycylglutamato-trans-(±)-1,2-diaminocyclohexaneplatinum(II)]phosphazene}, {NP(MPEG350)1.2[(GlyGlu)Pt(dach)]0.8}n [Example 2]”, for which the “TTR values (tumor tissue/normal tissue distribution)” value is, setting by setting: under setting [1], 4.8; under setting [2], 3.6.
The corresponding values for “poly{[methoxy poly(ethylene glycol)350][glycylglutamato-trans-(±)-1,2-diaminocyclohexaneplatinum(II)]phosphazene}, {NP(MPEG350)1.5[(GlyGlu)Pt(dach)]0.5}n [Example 1]” are 2.8 and 5.2.
In the case of “poly{[methoxy poly(ethylene glycol)550][glycylglutamato-trans(±trans-(±)-1,2-diaminocyclohexaneplatinum(II)]phosphazene}, {NP(MPEG350)1.12[(GlyGlu)Pt(dach)]0.88}n [Example 7]”, the “TTR values (tumor tissue/normal tissue distribution)” value was 3.8 under setting [1] and 7.4 under setting [2].
The corresponding values for “pol{[methoxy poly(ethylene glycol)350][glycylglutamato-trans-(±)-1,2-diaminocyclohexaneplatinum(II)]phosphazene}, {NP(MPEG350)1.2[(GlyGlu)Pt(dach)]0.8}n [Example 4]” are 2.5 and 4.0.
